System: C57B/6 male mice
Experiment: Body weight of C57B/6 mice on high fat diet
Assay type: in vivo, mouse
Conditions: 50 mg/kg once daily intraperitoneal, p<0.05
Experimental: 8 week old C57B/6 male mice were started on a high fat diet containing 60% kcal fat. […] Body weight was measured every week.

Cc1sc2c(c1C)C(c1ccc(Cl)cc1)=N[C@@H](CC(=O)OC(C)(C)C)c1nnc(C)n1-2 (racemic) [JQ1, (S)-tert-Butyl 2-(4-(4-chlorophenyl)-2,3,9-trimethyl-6H-thieno[3,2-f][1,2,4]triazolo[4,3-a][1,4]diazepin-6-yl)acetate]
time on treatment after which weight curves separate in a statistically significant way: 3 weeks

Source: patent US20130252331A1, “COMPOSITIONS AND METHODS FOR MODULATING METABOLISM” (priority 2010, published 2013)
